Patent US20100311084A1, “METHODS FOR PREDICTING A PATIENT'S RESPONSE TO EGFR INHIBITORS” (PRECISION THERAPEUTICS, INC., priority 2008, published 2010)

Columns and labels:
[1] = system: primary lung cancer cultures; experiment: ChemoFx assay, cetuximab, primary lung cancer cultures; assay type: cell-based, human
Description: Patient tumor specimens. Deidentified colorectal and lung cancer specimens were procured for research purposes from the National Disease Research Interchange (Philadelphia, Pa.), Cooperative Human Tissue Network (Philadelphia, Pa.), Forbes Regional Hospital (Monroeville, Pa.), Jameson Hospital (New Castle, Pa.), Saint Barnabas Medical Center (Livingston, N.J.), Hamot Medical Center (Erie, Pa.) and Windber Research Institute (Windber, Pa.). Tumor type was provided as either colorectal or NSCLC or other lung cancer. Small-cell lung carcinomas or mesothelioma were not included. Stage for any specimen was not available.
After surgical removal, each specimen was placed in a 125-mL bottle containing sterile McCoy's shipping medium (Mediatech, Manassas, Va.) and shipped overnight to the research laboratory at Precision Therapeutics, Inc (Pittsburgh, Pa.).
Cell lines and tissue specimens were processed and tested with the ChemoFx® assay as described elsewhere. Also see, U.S. Pat. Nos. 5,728,541, 6,900,027, 6,887,680, 6,933,129, 6,416,967, 7,112,415, and 7,314,731; and U.S. application Ser. Nos. 10/399,563, 11/504,098, 11/595,967, 11/713,662, and 11/785,984, all of which are hereby incorporated by reference in their entireties, and especially with regard to tissue processing and cell culturing techniques, and assays. […] The same 10-dose concentration range was used for the cell lines and the tissue specimens. For each dose, a cytotoxic index (CI) was calculated according to the following formula: CI=Mean cell countdose x/mean cell countcontrol, which represents the ratio of cells killed as a result of the treatment. Cell counts were the average of 3 replicates at each dose for primary cultures and 9 replicates at each dose for immortalized cell lines. Dose response curves were generated using the CI at each of 5 doses contained within the 10 dose range. Adjusted areas under the curve (aAUC) were calculated for each dose-response curve as previously described and used to set cutoff values for the categorical responses.

[2] = system: pEGFR, pSTAT3, pErk, pAkt in HCC827 cells; experiment: In-Cell Western of downstream signaling molecules, HCC827; assay type: cell-based, human
Experimental: (§1) In-Cell Western assays. HCC827, H520, H1666 and H358 cell lines were plated in a 384-well microtiter plate at 320 cells/well and cultured for 3 days at 37° C. in 5% CO2 before drug treatment. Each cell line was cultured in RPMI 1640 containing 10% FBS. […] After treatment, cells were fixed with 4% paraformaldehyde. Cells (except for those used to detect the external EGFR staining) were permeabilized with 0.1% Triton X-100 (Fisher Scientific) in PBS. All cells were then washed twice with PBS at room temperature and incubated for 1 h at room temperature in Odyssey blocking buffer with gentle agitation to reduce the nonspecific antibody binding. Then, the cells were incubated overnight at 4° C. with primary antibody diluted in Odyssey blocking buffer with gentle agitation. The primary antibodies were mouse monoclonal antibody to the external epitope of EGFR (1:200); rabbit anti-phospho Akt (1:200), mouse anti-Akt (1:100), rabbit anti-phospho Erk (1:200), mouse anti-Erk (1:50), rabbit anti-phospho STAT3 (1:400) and mouse anti-STAT3 (1:50) (all from Cell Signaling Technology); and mouse anti-phospho EGFR (1:50) and goat anti-EGFR (1:50) (Santa Cruz Biotechnology, Santa Cruz, Calif. USA). After incubation with primary antibody, the cells were washed 4 times with PBS and incubated for 1 hour with the appropriate IR-labeled secondary antibodies [IRDye 800CW-labeled goat anti-rabbit (1:800), IRDye 800CW-labeled goat anti-mouse (1:800), IRDye 800CW-labeled donkey anti-mouse (1:800), IRDye 680-labeled goat anti-mouse (1:400), IRDye 680-labeled donkey anti-goat (1:400), LI-COR] in 0.1% Tween-20 in Odyssey blocking buffer. Cells were then washed 4 times using PBST for 5 minutes with gentle agitation. After the last PBST wash, all liquid was removed from the wells and the plates were immediately scanned on a LI-COR Odyssey Infrared Imaging System and analyzed using Odyssey software and Microsoft Excel (v. 2003, Microsoft Corporation, Redmond, Wash., USA). Integrated intensity ratios were calculated for each cell line by subtracting the background intensity from the negative control intensity for the channel and then dividing the intensity at the 800 channel (green) by the intensity at the 700 channel (red).

[3] = system: pEGFR, pSTAT3, pErk, pAkt in H520 cells; experiment: In-Cell Western of downstream signaling molecules, H520; assay type: cell-based, human
Experimental: as §1

colorectal carcinoma = conditions: cited from earlier work
NSCLC = conditions: cited from earlier work
[4] = 34 specimens from lung cancer patients, 72 hour exposure
[5] = 1.6 nM or 1.6 μM cetuximab for 4 h, versus control cells

Cetuximab
primary cultures IR to cetuximab [1, 4]: 6% | primary cultures NR to cetuximab [1, 4]: 91% | primary cultures R to cetuximab [1, 4]: 3% | ChemoFx cetuximab-sensitivity rate (combination of R and IR data) ([1]; samples from patients with NSCLC): 9% | normalized expression of pAkt [2, 5]: lower | normalized expression of pErk [2, 5]: lower | normalized expression of pAkt ([2]; 2 or 24 h after treatment): no change | normalized expression of pEGFR ([2]; any time point (2, 4, 24 h)): no changes | normalized expression of pSTAT3 ([2]; any time point (2, 4, 24 h)): no changes | normalized expression of pAkt ([3]; any time point): no changes | normalized expression of pErk ([3]; any time point): no changes | normalized expression of pEGFR ([3]; any time point (2, 4, 24 h)): no changes | normalized expression of pSTAT3 ([3]; any time point (2, 4, 24 h)): no changes | patients with partial response (colorectal carcinoma; Phase IIB study, irinotecan-refractory colorectal cancer patients [35]): 10.8% | partial response rate (colorectal carcinoma; open-label Phase II study, monotherapy, chemotherapy refractory patients, Saltz et al. [36]): 9% | patients with partial response (NSCLC; Phase II trial, cetuximab monotherapy, NSCLC, preliminary report [44]): 6% | overall response rate (NSCLC; open-label phase II study, single agent, recurrent or progressive NSCLC [45]): 4.5%
